Patent US20210163896A1, “METHOD FOR PRODUCING ANIMAL CELL CONTAINING DNA OF INTEREST USING MICRONUCLEATE CELL FUSION METHOD” (NATIONAL UNIVERSITY CORPORATION TOTTORI UNIVERSITY, priority 2018, published 2021)

Legend:
[1] = tested on: HT1080 wild type cell line
[2] = tested on: HT1080 HPRT defective cell line
[3] = tested on: foreign Chromosome X-comprising HT1080 HPRT deficient cell line

Question: What does the source list for `Nc1nc2nc[nH]c2c(=S)[nH]1` [6-thioguanine]?
Answer: cytotoxicity with 6-thioguanine [1]: underwent cytotoxicity; cytotoxicity with 6-thioguanine [2]: insensitive; cytotoxicity with 6-thioguanine [3]: cytotoxicity with 6-thioguanine was observed
